{"source": "paper PMC5421360", "about": "(Peptides, 2017)", "system": "NCI-H727 cells", "assay": "MTT proliferation assay, NCI-H727 cells", "format": "cell-based, human", "details": "2 days", "data": [{"substance": "Trastuzumab: Herceptin; HER2 inhibitor used for patients with overexpressed HER2", "values": [{"measurement": "IC50, proliferation", "value": 0.5, "unit": "µg/mL"}]}]}
